Reference: US11639373B2, “Therapeutic and diagnostic agents for cancer” (TECHNISCHE UNIVERSITÄT MÜNCHEN, priority 2018, dated 2023)
Like-named read-outs stand apart in the source and are kept apart here.

Amino acid sequences for entries named in this document (tags omitted).
UniProt P70658, whole entry: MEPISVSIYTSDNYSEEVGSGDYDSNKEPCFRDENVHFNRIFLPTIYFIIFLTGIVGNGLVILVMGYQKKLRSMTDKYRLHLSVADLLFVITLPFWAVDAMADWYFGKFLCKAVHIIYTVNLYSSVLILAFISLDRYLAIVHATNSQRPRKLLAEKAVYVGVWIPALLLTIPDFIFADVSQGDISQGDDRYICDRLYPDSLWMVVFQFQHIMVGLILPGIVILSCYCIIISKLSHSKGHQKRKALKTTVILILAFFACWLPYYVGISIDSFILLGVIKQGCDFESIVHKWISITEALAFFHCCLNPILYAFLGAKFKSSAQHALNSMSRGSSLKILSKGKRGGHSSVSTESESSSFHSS
UniProt P61073, whole entry: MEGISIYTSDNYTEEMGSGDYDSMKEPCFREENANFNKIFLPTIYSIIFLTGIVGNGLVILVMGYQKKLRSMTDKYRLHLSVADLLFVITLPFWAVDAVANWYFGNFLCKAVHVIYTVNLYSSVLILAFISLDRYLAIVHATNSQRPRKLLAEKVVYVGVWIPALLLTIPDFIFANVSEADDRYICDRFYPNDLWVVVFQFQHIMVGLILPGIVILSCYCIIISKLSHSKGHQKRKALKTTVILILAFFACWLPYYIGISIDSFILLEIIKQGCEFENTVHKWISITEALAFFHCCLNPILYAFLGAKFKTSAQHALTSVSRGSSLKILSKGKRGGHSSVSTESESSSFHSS

Assays:
murine CXCR4 = target: T1, murine CXCR4 (Mus musculus, UniProt P70658); assay: Competitive binding assay to murine CXCR4, Eμ-Myc1080 cells, [125I]CPCR4.3 radioligand; conditions: Eμ-Myc1080 mouse B-cell lymphoma cells
T1 construct: The murine CXCR4 expressing cell line Ep-Myc1080; endogenous in cells; host or cells: Eμ-Myc1080 mouse B-cell lymphoma cells
Experimental: Competition studies addressing the human CXCR4 were performed using CXCR4 positive Jurkat human T-cell leukemia cells and ^125I-FC131 (^125I-2), addressing the murine CXCR4, Ep-Myc1080 mouse B-cell lymphoma cells and ^125I-CPCR4.3 (Demmer et al. A Conformationally Frozen Peptoid Boosts CXCR4 Affinity and Anti-HIV Activity. Angewandte Chemie International Edition. 2012; 51:8110-8113) as the radioligand were utilized as described previously (Poschenrieder et al., The influence of different metal-chelate conjugates of pentixafor on the CXCR4 affinity. EJNMMI research. 2016; 6:1-8).
The binding affinities (IC50) of the respective ^natLu and ^natGa derivatives towards the human and murine CXCR4 (Table 1a) were determined in a competitive binding assay using Jurkat human T-cell leukemia cells or Ep-Myc1080 mouse B-cell lymphoma cells (4.0 and 2.0*10^5 cells/well, 2 h, RT) and ^125I-2 or ^125I-CPCR4.3 (0.1 nM) as the radioligand. To be able to assess the effect of structural modifications in the SAR study on CXCR4 binding affinity, data for ^natGa-pentixafor (^natGa-3) and ^natLu-pentixather (^natLu-4) are also included in Table 1a.

human CXCR4 = target: T2, human CXCR4 (Homo sapiens, UniProt P61073); assay: Competitive binding assay to human CXCR4, Jurkat cells, [125I]FC131 radioligand
T2 construct: using CXCR4 positive Jurkat human T-cell leukemia cells; endogenous in cells; host or cells: Jurkat human T-cell leukemia cells

CN1C(=O)[C@@H](Cc2ccc(O)c(I)c2)NC(=O)CNC(=O)[C@H](Cc2ccc3ccccc3c2)NC(=O)[C@H](CCCNC(=N)N)NC(=O)C1CCCNC(=O)c1ccc(NC(=O)CNC(=O)[C@H](CCCCN)NC(=O)CN2CCN(CC(=O)O)CCN(CC(=O)O)CCN(CC(=O)O)CC2)cc1 (stereo partly drawn) [P3]
IC50 (murine CXCR4; Table 1c, read-out: IC50 [nM] to mCXCR4): 37.1 ± 2.9 nM | IC50 (murine CXCR4; ^natLu complexes, mean ± SD (n = 3), 120 min, read-out: mIC50[nM] ^natLu complexes and murine CXCR4): 61.4 ± 17 nM

CN1C(=O)[C@@H](Cc2ccc(O)c(I)c2)NC(=O)CNC(=O)[C@H](Cc2ccc3ccccc3c2)NC(=O)[C@H](CCCNC(=N)N)NC(=O)[C@H]1CCCNC(=O)c1ccc(NC(=O)CNC(=O)[C@H](CCCNC(=N)N)n2cc(C[N+](C)(C)C[B-](F)(F)F)nn2)cc1 [F3, cyclo[i-yorn′(AMBF3(methyl(1H-1,2,3-triazol-4-yl)-rG-4-amino)benzoyl-)RNaIG]]
IC50 (human CXCR4; Table 1b, 18F-labeling precursors, [^125I]FC-131, read-out: IC50 [nM] to hCXCR4): 2.9 ± 0.9 nM

CN1C(=O)[C@@H](Cc2ccc(O)c(I)c2)NC(=O)CNC(=O)[C@H](Cc2ccc3ccccc3c2)NC(=O)[C@H](CCCNC(=N)N)NC(=O)[C@H]1CCCNC(=O)c1ccc(NC(=O)CNC(=O)[C@H](CN)NC(=O)CN2CCN(CC(=O)O)CCN(CC(=O)O)CCN(CC(=O)O)CC2)cc1 [P2]
IC50 (human CXCR4; Table 1b, ^natBi metal complexes, [^125I]FC-131, read-out: IC50 [nM] to hCXCR4 [^natBi]): 3.5 ± 0.4 nM | IC50 (human CXCR4; Table 1b, ^natLu metal complexes, [^125I]FC-131, read-out: IC50 [nM] to hCXCR4 [^natLu]): 3.5 ± 0.3 nM | IC50 (human CXCR4; ^natLu complexes, [^125I]FC131 0.1 nM, RT 2 h, mean ± SD (n = 3), read-out: IC50 [nM] for ^natLu-complexes and human CXCR4): 3.5 ± 0.3 nM
